Data reported in BindingDB's records for doi:10.1016/j.bmcl.2011.06.080 (Johnson & Johnson Pharmaceutical Research and Development, 2011).

Assay: Antagonist activity at CCR2 in human THP1 cells assessed as inhibition of MCP1-induced chemotaxis after 3 hrs

## CN(C)c1cccc([C@]2(O)CC[C@@H](N3CC(NC(=O)CNC(=O)c4cccc(C(F)(F)F)c4)C3)CC2)c1
  IC50: 22 nM
